This is a selection: effects in other tests are not listed, and their absence says nothing.
Tests used:
[1] = plasma concentration following intrathecal injection in the rat; details: 45 min after intrathecal injection, mean of 4-5 rats
[2] = pharmacokinetic parameters in lumbar CSF after epidural administration, dogs
[3] = following spinal administration; cited from earlier work
[4] = ex vivo meningeal diffusion / meningeal flux (two-well diffusion cell); details: for reduction in meningeal flux: monkey meninges ex vivo; for degree of reduction in meningeal flux (ordering): after complexation with CDEX
[5] = alfentanil redistribution (plasma, epidural space) after epidural injection, dogs; details: dog
[6] = alfentanil 400 μg epidural in saline, N = 5
[7] = alfentanil 400 μg epidural, 2% CDEX, N = 1
[8] = alfentanil 400 μg epidural, 20% CDEX, N = 1
[9] = parentheses: same animal as 2% CDEX, without CDEX
[10] = parentheses: same animal as 20% CDEX, without CDEX
[11] = alfentanil 400 μg epidural with 2% CDEX, relative to 20% CDEX
[12] = alfentanil 400 μg epidural with 20% CDEX
[13] = alfentanil 400 μg epidural with CDEX

## CCC(=O)N(c1ccccc1)C1(COC)CCN(CCn2nnn(CC)c2=O)CC1
[1]
  Plasma concentration: 10.4 ng/mL
[2]; [6]
  T1/2abs (halftime of absorption): 1.57 min
  T1/2α (redistribution): 7.9 min
  T1/2 β (elimination half life): 1.95 h
  T max (time to C max): 4.66 min
[2]; [7]
  T1/2abs (halftime of absorption): 7.2 min
  T1/2α (redistribution): 7.4 min
  T1/2 β (elimination half life): 7.2 h
  T max (time to C max): 10.7 min
[2]; [8]
  T1/2abs (halftime of absorption): 30.7 min
  T1/2α (redistribution): 32.3 min
  T1/2 β (elimination half life): 36.3 h
[2]; [9]
  T1/2abs (halftime of absorption): 3.4 min
  T1/2α (redistribution): 5.8 min
  T1/2 β (elimination half life): 0.523 h
[2]; [10]
  T1/2abs (halftime of absorption): 2.2 min
  T1/2α (redistribution): 7.1 min
  T1/2 β (elimination half life): 2.53 h
[3]
  blood concentrations early on: prominent blood concentrations
[4]; 2% CDEX vs CSF
  reduction in meningeal flux: 20 fold
[4]; 20% CDEX vs CSF, listed as alfentanil, HCl
  reduction in meningeal flux: 100 fold
[4]
  degree of reduction in meningeal flux (ordering): alfentanil>>sufentanil
[5]; alfentanil 400 μg epidural in saline
  plasma drug concentration: rapid increase to peak plasma drug concentrations
[5]; [11]
  peak plasma concentrations (reduction): to a lesser extent
  total body clearance (reduction): to a lesser extent
[5]; [12]
  peak plasma concentrations: markedly reduced
  total body clearance: markedly reduced
[5]; [13]
  apparent volume of epidural space (Va): increased
  rate of redistribution from the epidural space to the systemic circulation: retarded

## CCC(=O)N(c1ccccc1)C1(COC)CCN(CCc2cccs2)CC1
[3]
  blood concentrations early on: prominent blood concentrations
[4]; 20% CDEX vs CSF
  reduction in meningeal flux: 10 fold
[4]
  degree of reduction in meningeal flux (ordering): alfentanil>>sufentanil

Source: patent US5180716A, “Cyclodextrin complexes for neuraxial administration of drugs” (The Regents of the University of California, priority 1990, dated 1993)
